AlphaSeq binding of Ab-14 heavy chain variants to a spike HR2 peptide

Reference: Li et al. 2023, doi:10.1038/s41467-023-39022-2. File: FLAb, binding data.

All variants were tested on one target, the spike HR2 peptide PDVDLGDISGINAS (SARS-CoV-2).

The variants keep the light chain, the linker and the frameworks of Ab-14 (scFv order VH, a 15-residue (Gly4Ser)3 linker, VL).
VH: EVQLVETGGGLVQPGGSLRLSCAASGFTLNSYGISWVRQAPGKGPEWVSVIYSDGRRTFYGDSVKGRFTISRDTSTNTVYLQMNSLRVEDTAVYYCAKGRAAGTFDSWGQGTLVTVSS
VL: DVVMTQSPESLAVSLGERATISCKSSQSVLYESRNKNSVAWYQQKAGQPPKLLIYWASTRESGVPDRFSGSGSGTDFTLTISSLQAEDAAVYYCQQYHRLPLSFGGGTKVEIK

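The starting antibody came from a phage panning campaign against this peptide. This is the validation round: designs drawn from the data on random variants, tested in the same kind of assay. Their group label is 14H_En_HC (En: ensemble of fine-tuned language models; HC: hill climbing; a sequence that several methods proposed may carry one label only). The assay is AlphaSeq: two haploid yeast populations carry antibody and antigen on their surface. The frequency of each diploid, read from paired DNA barcodes, reflects how well the two displayed proteins bind. The ratio of observed to expected reads was calibrated, replicate by replicate, on BCL2-family standards whose Kd was known from biolayer interferometry. Mating was done six times.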

The parent's heavy chain CDRs are GFTLNSYGIS, VIYSDGRRTFYGDSVK, GRAAGTFDS; each variant's own CDRs replace them letter for letter. Values are log10 of the apparent Kd in nM; lower means stronger binding. Averages over replicates are reported, and they cover detected replicates only. Where no diploid with the target was found in that replicate, the entry reads "ND": below detection, most likely a poor binder, though not proof of it.

| # | CDR-H1 | CDR-H2 | CDR-H3 | log10 Kd, replicates | mean, log10 nM | empty controls |
|---|---|---|---|---|---|---|
| 1 | GFNLNEYGIS | VIYADGVRTFYADSVK | GQVAGTFDV | -0.16 -0.58 -0.62 -0.72 -0.73 -0.32 | -0.52 | 0/18 |
| 2 | GFDLNEYGIS | VIYADGRRTFYTDDVK | GNVAGTFDL | -0.45 -0.56 -0.92 -1.54 -0.93 -0.91 | -0.88 | 0/18 |
| 3 | GFDLESYGIS | VIYADGRRTFYSDSVK | GHNAGTFDI | -0.38 -0.81 -0.76 -0.77 -0.58 -0.68 | -0.66 | 0/18 |
| 4 | GFDLNEYGIS | VIYADGRRTQYIDSVK | GEVAGTFDV | -0.24 -0.43 -0.49 -0.53 -0.31 -0.14 | -0.36 | 0/18 |
| 5 | GFDLNEYGIS | VIYADGQRTFYTDSVK | GANAGTFDS | 0.07 -0.34 -0.59 -0.36 -0.32 -0.22 | -0.29 | 0/18 |
| 6 | GFDLNEYGIS | VIYADGRRTFYADSVK | GEVAGTFDF | -0.30 -0.51 -0.57 -0.56 -0.58 -0.29 | -0.47 | 0/18 |
| 7 | GFDLNEYGIS | VIYADGRRTFYTDSVK | GQNAGTFDQ | -0.36 -0.57 -0.85 -0.56 -0.51 -0.26 | -0.52 | 0/18 |
| 8 | GFDLNEYGIS | VIYADGRRTFYADSVK | GSNAGTFDV | -0.38 -0.29 -0.10 -0.36 -0.54 -0.37 | -0.34 | 0/18 |
| 9 | GFDLNEYGIS | VIYADGRRTFYADSVK | GSNAGTFDQ | -0.11 -0.45 -0.49 -0.53 -0.33 -0.45 | -0.39 | 1/18 (1.46) |
| 10 | GFDLNEYGIS | VIYADGRRTFYTDSVK | GTNGGTFDV | -0.31 -0.72 -0.59 -0.73 -0.45 -0.32 | -0.52 | 0/18 |
| 11 | GFDLNEYGIS | VIYADGRRTAYDDSVK | GEAAGTFDM | -0.34 -0.15 -0.77 -0.53 -0.76 -0.34 | -0.48 | 0/18 |
| 12 | GFDLNEYGIS | VIYADGRRTFYTDSVK | GNVAGTFLV | -0.15 -0.21 -0.41 -0.16 -0.41 -0.39 | -0.29 | 0/18 |
| 13 | GFDLNEYGIS | VIYADGRRTFYSDSVK | GQIAGTFDQ | 0.63 0.62 0.35 -0.09 0.40 0.47 | 0.40 | 0/18 |
| 14 | GFGLDEYGIS | VIYADGRRTFYADSVK | GENAGTFDV | -0.44 -0.50 -0.71 -0.54 -0.66 -0.50 | -0.56 | 0/18 |
| 15 | GFDLNEYGIS | VIYADGKRTAYIDSVK | GEAAGTFDS | ND ND 0.16 0.81 ND ND | 0.48 | 0/18 |
| 16 | GFDLNEYGIS | VIYADGMRTQYIDSVK | GNAAGTFDV | 0.03 0.14 -0.10 -0.04 -0.27 0.31 | 0.01 | 0/18 |
| 17 | GFDLNEYGIS | VIYADGRRTFYIDSVK | GNEAGTFDS | -0.67 -0.82 -0.86 -0.63 -0.96 -0.33 | -0.71 | 0/18 |
| 18 | GFDLNEYGIS | VIYADGRRTAYSDSVK | GETAGTFDF | -0.21 -0.62 -0.60 -0.59 -0.38 -0.52 | -0.49 | 0/18 |
| 19 | GFSLNEYGIS | VIYADGRRTFYADSVK | GEAAGTFDQ | 0.08 -0.26 -0.47 -1.13 -0.66 -0.58 | -0.50 | 0/18 |
| 20 | GFDLNEYGIS | VIYADGMRTFYSDSVK | GQTAGTFDA | 0.13 -0.63 -0.54 -0.75 -0.58 -0.44 | -0.47 | 1/18 (2.01) |
| 21 | GFDLNEYGIS | VIYADGRRTFYSDSVK | GNVGGSFDV | -0.28 -0.11 -0.29 -0.63 -0.02 0.22 | -0.18 | 0/18 |
| 22 | GFDLNEYGIS | VIYADGRRTQYIDSVK | GNQAGTFDL | -0.44 -0.72 -0.75 -1.07 -0.99 -0.53 | -0.75 | 0/18 |
| 23 | GFDLNEYGIS | VIYADGRRTFYADSVK | GTNAGTFDQ | -0.60 -0.92 -0.65 -1.35 -1.00 -0.37 | -0.81 | 0/18 |
| 24 | GFDLNEYGIS | VIYADGMRTSYADSVK | GQLAGTFDQ | -0.52 -0.66 -0.66 -0.61 -0.45 -0.28 | -0.53 | 0/18 |
| 25 | GFNLNEYGIS | VIYADGRRTFYTDDVK | GEAAGTFDL | ND ND -0.17 -1.18 -1.48 ND | -0.95 | 0/18 |
| 26 | GFDLNEYGIS | VIYADGMRTFYADSVK | GEFAGTFDS | ND ND ND ND ND ND | ND | 0/18 |
| 27 | GFDLNEYGIS | VIYADGVRTFYTDSVK | GEVAGTFDQ | -0.23 -0.09 -0.31 -0.42 -0.08 -0.40 | -0.25 | 0/18 |
| 28 | GFDLNEYGIS | VIYADGMRTFYADSVK | GQAAGTFDI | -0.33 0.03 0.29 -0.22 -0.25 -0.18 | -0.11 | 0/18 |
| 29 | GFNLDEYGIS | VIYADGRRTFYSDNVK | GEVAGTFDI | -0.33 0.62 -0.26 -0.06 -0.16 1.08 | 0.15 | 0/18 |
| 30 | GFDLNEYGIS | VIYADGRRTFYSDSVK | GQNAGTFDS | 0.43 0.01 -0.20 -0.54 0.06 0.06 | -0.03 | 2/18 (1.38) |
| 31 | GFDLNEYGIS | VIYADGRRTFYTDSVK | GGNAGTFDQ | -1.18 -1.30 -1.55 -1.66 -1.22 -1.35 | -1.38 | 0/18 |

The 5 strongest on average among those seen in every replicate, once more:

CDR-H1,CDR-H2,CDR-H3,"log10 Kd, replicates","mean, log10 nM",empty controls
GFDLNEYGIS,VIYADGRRTFYTDSVK,GGNAGTFDQ,-1.18 -1.30 -1.55 -1.66 -1.22 -1.35,-1.38,0/18
GFDLNEYGIS,VIYADGRRTFYTDDVK,GNVAGTFDL,-0.45 -0.56 -0.92 -1.54 -0.93 -0.91,-0.88,0/18
GFDLNEYGIS,VIYADGRRTFYADSVK,GTNAGTFDQ,-0.60 -0.92 -0.65 -1.35 -1.00 -0.37,-0.81,0/18
GFDLNEYGIS,VIYADGRRTQYIDSVK,GNQAGTFDL,-0.44 -0.72 -0.75 -1.07 -0.99 -0.53,-0.75,0/18
GFDLNEYGIS,VIYADGRRTFYIDSVK,GNEAGTFDS,-0.67 -0.82 -0.86 -0.63 -0.96 -0.33,-0.71,0/18

In the paper, a design with two or fewer of six values counts as a poor binder. Background: pairings of all heavy chain designs with three empty control strains gave a value in 1% of cases (median 2.08, 5th percentile 0.84). Values in that range, when seen in few replicates, are hard to tell from nonspecific mating. For each scFv, signals with the empty controls are counted beside the result, with their mean in brackets. The range of this assay differs from that of the first round, and the authors advise against merging the two.